# Assay results reported in ChEMBL document CHEMBL1147462, “Exploring QSAR of melatonin receptor ligand benzofuran derivatives using E-state index” (Bioorg Med Chem Lett, 2004).
# Molecular target: T1, Melatonin receptor type 1B (Homo sapiens) (UniProt P49286)
# T1 sequence (whole entry): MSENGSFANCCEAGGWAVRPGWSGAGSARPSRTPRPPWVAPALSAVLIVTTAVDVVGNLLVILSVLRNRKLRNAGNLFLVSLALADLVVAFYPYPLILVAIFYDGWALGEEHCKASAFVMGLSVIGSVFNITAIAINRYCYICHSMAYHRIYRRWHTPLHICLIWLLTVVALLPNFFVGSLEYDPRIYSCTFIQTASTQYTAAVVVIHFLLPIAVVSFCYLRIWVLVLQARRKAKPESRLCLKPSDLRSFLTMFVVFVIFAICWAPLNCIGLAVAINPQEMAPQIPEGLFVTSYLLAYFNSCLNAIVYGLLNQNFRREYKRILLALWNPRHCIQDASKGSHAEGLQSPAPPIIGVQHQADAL
# Test: Binding affinity against melatonin receptor type 1B
compound,measurement,value
COc1ccc2oc(Cc3ccccc3)c(CCNC(C)=O)c2c1,pC1,4.3
